Reference: ChEMBL document CHEMBL4613250, “Discovery of 4-((2S,4S)-4-Ethoxy-1-((5-methoxy-7-methyl-1H-indol-4-yl)methyl)piperidin-2-yl)benzoic Acid (LNP023), a Factor B Inhibitor Specifically Designed To Be Applicable to Treating a Diverse Array of Complement Mediated Diseases” (J Med Chem, 2020)

Chains of the proteins cited; added tags and fusions are not shown.
UniProt P04186, whole entry: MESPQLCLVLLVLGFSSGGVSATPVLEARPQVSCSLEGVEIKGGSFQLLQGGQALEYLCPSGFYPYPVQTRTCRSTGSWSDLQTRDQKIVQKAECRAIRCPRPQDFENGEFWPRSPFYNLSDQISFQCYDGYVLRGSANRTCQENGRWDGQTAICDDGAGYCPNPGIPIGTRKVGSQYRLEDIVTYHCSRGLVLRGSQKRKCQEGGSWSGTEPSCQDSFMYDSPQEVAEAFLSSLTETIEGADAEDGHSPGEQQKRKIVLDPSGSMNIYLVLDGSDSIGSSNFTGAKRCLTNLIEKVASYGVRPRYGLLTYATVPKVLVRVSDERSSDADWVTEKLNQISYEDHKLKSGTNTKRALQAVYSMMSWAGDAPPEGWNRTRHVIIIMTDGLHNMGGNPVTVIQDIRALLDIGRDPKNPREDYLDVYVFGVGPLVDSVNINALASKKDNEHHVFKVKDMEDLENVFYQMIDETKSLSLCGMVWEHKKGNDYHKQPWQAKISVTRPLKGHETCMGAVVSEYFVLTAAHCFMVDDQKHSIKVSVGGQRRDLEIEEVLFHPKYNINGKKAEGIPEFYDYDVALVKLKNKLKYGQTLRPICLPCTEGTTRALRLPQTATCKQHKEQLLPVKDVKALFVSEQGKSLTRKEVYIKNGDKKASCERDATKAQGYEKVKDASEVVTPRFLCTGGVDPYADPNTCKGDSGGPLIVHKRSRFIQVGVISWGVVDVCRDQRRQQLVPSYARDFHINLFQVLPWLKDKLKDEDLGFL

Biological target: Complement factor B (Mus musculus, UniProt P04186)
Experiment: Inhibition of serine protease factor B in 50% mouse serum assessed as reduction in C3b deposition pre-incubated for 15 mins before activated zymosan A stimulation for 50 mins by ELISA
Type: cell-free

## CCO[C@H]1CCN(Cc2c(C3CC3)cc(C)c3[nH]ccc23)[C@H](c2ccc(C(=O)O)cc2)C1
  IC50: 80 nM

## Cc1cc(C)c2[nH]ccc2c1CN1CCCCC1c1ccc(C(=O)O)cc1 (stereo not given)
  IC50: 2280 nM

## CO[C@H]1CCN(Cc2c(C)cc(C)c3[nH]ccc23)[C@H](c2ccc(C(=O)O)cc2)C1
  IC50: 160 nM

## COc1cc(C)c2[nH]ccc2c1CN1CC[C@H](OC)C[C@H]1c1ccc(C(=O)O)cc1
  IC50: 150 nM

## CCO[C@H]1CCN(Cc2c(C)cc(C)c3[nH]ccc23)[C@H](c2ccc(C(=O)O)cc2)C1
  IC50: 120 nM
